# Screens (PubChem BioAssay)
# Nrf2 ARE act = activates Nrf2 signaling; AREc32 ARE-luciferase reporter (MCF7-derived line), luminescence, 24 h; 0.31% of 410,000 active; Potency, µM (doses to about 46.1 µM), without a hit: at the highest dose activation, usual class: activators; further: potency means the concentration at half of the fitted maximal effect; % of control where 0% means no effect; nearly all actives have a fitted effect of over 65% in size
#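 AREc32_Fluc, 1000 cells/well, OPTI-MEM + 5% FBS, o/n 37 deg C 5% CO2; 23 nL cpd by pin tool, 24 hr; Steady-Glo 30 min RT, luminescence.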
# A549 tox = kills or reduces viability of A549 cells in Nrf2 counter-screen; 0.16% of 390,000 active; Potency, µM (top dose mostly 46 µM), for inactives: at the highest dose activity change, negative = cytotoxicity, most hits filed as inhibitors; A549 ARE-Fluc cells, CellTiter-Fluor viability, 18-24 h; further: potency means the concentration at half of the fitted maximal effect; on the % scale 0 is the no-effect control and ±100 the full control effect
#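 Cytotoxicity counterscreen: CellTiter-Fluor fluorescence was measured in A549 ARE_Fluc cells after 18-24 h of compound exposure in a concentration series. The subsequent BugLite luminescent read reports ARE-luciferase activity.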
# Mito fusion act = inhibitors of mitochondrial division or activators of mitochondrial fusion; AID 485298; 0.23% of 320,000 active; S. cerevisiae fusion-defective mutant growth rescue, CellTiterGlo 48 h; Potency, µM (titrated, usually from 46.1 µM), inactives show at the top dose growth rescue (activation), hits mostly activators; further: potency means the concentration at half of the fitted maximal effect; % of control where 0% means no effect; nearly all actives have a fitted effect of over 45% in size
#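 Read-out: ATP-based luminescence (CellTiterGlo, 10 min ambient) reporting growth of fusion-defective ts yeast after 48 hours at 37C on glycerol/ethanol YPEG medium in the presence of compound.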
# Nrf2 inh = Nrf2 pathway inhibition | A549 ARE-Fluc reporter, luciferase luminescence, 18-24 h | Potency, µM (titrated, usually from 46 µM), for the others: at the top dose activity change, negative = inhibition, hits mostly inhibitors | 2.1% of 360,000 active; further: potency means the concentration at half of the fitted maximal effect; on the % scale 0 is the no-effect control and ±100 the full control effect; nearly all actives have a fitted effect of over 60% in size
#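 Cells were seeded and rested 2 h, then exposed to compounds for 18-24 h. CellTiter-Fluor was read first as a viability measure. BugLite was added 15 min before the final luminescent read of ARE-luciferase activity in A549 cells.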
# GRP78 ERSR act = ER stress response induction in glioma | 0.02% of 420,000 active | Potency, µM, for inactives: top-dose activation, hits mostly activators | AID 602332 | U87-MG GRP78 promoter luciferase reporter, 16 h; further: potency means the concentration at half of the fitted maximal effect; series mostly up to about 76 µM; % of control where 0% means no effect; nearly all actives have a fitted effect of over 35% in size
#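 ERSR induction read as luciferase luminescence (Bright-Glo, 10 min at room temperature) in stably transfected human U87-MG glioma cells exposed to compounds for 16 h, using GRP78 as sensor.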
# miR-21 reporter = raises the signal of a miR-21 reporter | HeLa miR-21 FLuc reporter, luciferase, 48 h | Potency, µM (doses to about 38.3 µM), for the others: at the highest dose reporter change, positive = more light | 340,000 tested, under 10 active | AID 2288; active = well fitted rising curve with a large enough effect; inconclusive = small, poorly fitted or top-dose-only effect; inactive = no such curve, though single readings can be large or run the other way;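 also: % of control where 0% means no effect; miR-21 action dims this reporter so a rising signal means less miR-21 action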
#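 Compounds were titrated across several concentrations (up to approximately 40 uM) and incubated 48 hours with HeLa miR-21-FLuc reporter cells (miR-21 target sequence downstream of FLuc, endogenous miR-21). Readout was firefly luciferase luminescence after lytic detection reagent.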
# * = called active by the depositor; ? = inconclusive; / = no result; [ ] = another dose, or the depositor's remark. An excerpt weighted towards active compounds, which were near 2.3% of everything screened. Unless noted, the call rests on the fitted dose curve; in most records, active means well fitted curve in the direction sought with a large enough effect; inconclusive means small, poorly fitted or top-dose-only effect, or another doubt; inactive means no such curve, though single readings can be large; an effect the other way counts as inactive or inconclusive.
SMILES,Nrf2 ARE act,A549 tox,Mito fusion act,Nrf2 inh,GRP78 ERSR act,miR-21 reporter
CCCc1cc(=O)[nH]c(NCc2ccc(Cl)cc2)n1,0%,11%,-3%,-11%,-3%,5%
CC1=C(c2ccc(Cl)cc2)S(=O)(=O)N=C1N1CCN(c2cccc(C)c2)C(C)C1 (stereo not drawn),0%,-4%,/,23µM*,0%,1%
Cc1ccc(-c2nc3nc(C)cc(N4CCN(c5cccc(C)c5)C(C)C4)n3n2)cc1 (stereo not drawn),0%,0%,/,4%,-1%,2%
CCc1ccc(OCCNC(=O)c2cc(SC)ccc2Cl)cc1,0%,?,2%,18µM*,-5%,-3%
Cc1nc(NCc2ccco2)c2cn[nH]c2n1,26%,-8%,/,23µM*,-2%,/
c1coc(CNc2nc3nonc3nc2NCc2ccco2)c1,26%,-18%,-5%,7.3µM*,-3%,21%
c1coc(CNc2ncnc3[nH]ncc23)c1,?,0%,1%,?,2%,1%
Cc1ccc(O)c(NS(=O)(=O)c2cccc3nsnc23)c1,5%,15%,7%,?,5%,-23%
COc1ccc(Cn2cccc(NC(=O)Nc3ccc(F)cc3)c2=O)cc1,4%,-1%,2%,?,-5%,-2%
COc1cccc(NC(=O)Nc2cccn(Cc3ccccc3)c2=O)c1,6%,-28%,-1%,12µM*,5%,4%
Cc1ccc(Cn2cccc(NC(=O)NCc3ccccc3)c2=O)cc1,9%,-2%,-3%,-15%,-1%,2%
CSc1ccc(NC(=O)Nc2cccn(Cc3ccccc3)c2=O)cc1,3%,?,-1%,12µM*,1%,-20%
CSc1ccccc1NC(=O)Nc1ccc(Cl)cc1,5%,23%[1.84 µM],1%,7.3µM*,6%,-9%
COc1ccc(Cn2cccc(NC(=O)Nc3cccc(OC)c3)c2=O)cc1,0%,?,7%,5.2µM*,-4%,23%
CC12CC3(C)CC(C)(C1)CC(C(N)=O)(C2)C3,-1%,7%,4%,13%,-5%,0%
Cc1ccc(NC(=O)CSc2nc(=O)n(Cc3ccncc3)c3c2CCC3)cc1Cl,0%,2%,/,/,-1%,3%
Cc1cc(C)n(-c2ccc(C(=O)N3CCN(S(=O)(=O)c4cccc(Br)c4)CC3)cc2)n1,2%,-18%,/,?,-4%,/
Cc1cc(C)n(-c2ccc(C(=O)N3CCN(S(=O)(=O)c4ccc(C(C)C)cc4)CC3)cc2)n1,0%,-17%,-1%,23µM*,-2%,/
CCOC(=O)c1sc(NC(=O)c2ccncc2)c(C#N)c1C,2%,?,11µM*,23µM*,3%,-4%
Cc1nc([N+](=O)[O-])c(Br)n1CC(=O)c1ccc(Br)cc1,14%,16µM*,-3%,23µM*,-16%,?
COc1ccc(S(=O)(=O)Nc2c(C(=O)O)[nH]c3ccccc23)cc1,5%,-2%,3%,15%,-7%,-3%
O=C(O)c1[nH]c2ccccc2c1NS(=O)(=O)c1ccc(F)cc1,4%,1%,35µM*,10%,2%,-3%
COc1cccc(CC(NC(C)=O)C(=O)NC2CCN(S(=O)(=O)c3ccc(C)cc3)CC2)c1OC (stereo not drawn),0%[9.22 µM],5%,8%,0%,-2%,2%
CCc1ccc(S(=O)(=O)/N=C2\C=C(Nc3cccc(C(=O)O)c3)C(=O)c3ccccc32)cc1,-3%,?,-13%,21µM*,-17%,?

# Single values from above.
# O=C(O)c1[nH]c2ccccc2c1NS(=O)(=O)c1ccc(F)cc1 – Mito fusion act: 35µM*
# Cc1nc(NCc2ccco2)c2cn[nH]c2n1 – A549 tox: -8%
# CSc1ccc(NC(=O)Nc2cccn(Cc3ccccc3)c2=O)cc1 – GRP78 ERSR act: 1%
# Cc1ccc(NC(=O)CSc2nc(=O)n(Cc3ccncc3)c3c2CCC3)cc1Cl – GRP78 ERSR act: -1%
# COc1ccc(Cn2cccc(NC(=O)Nc3ccc(F)cc3)c2=O)cc1 – A549 tox: -1%
# c1coc(CNc2nc3nonc3nc2NCc2ccco2)c1 – A549 tox: -18%

# Remaining list, next part
SMILES,Nrf2 ARE act,A549 tox,Mito fusion act,Nrf2 inh,GRP78 ERSR act,miR-21 reporter
CCc1ccc(S(=O)(=O)/N=C2\C=C(Nc3ccc(O)cc3)C(=O)c3ccccc32)cc1,-2%,12µM*,-38%,8.2µM*,-19%,?
CCn1c(C)nc2cc(C(=O)N/N=C(\C)c3ccc(OC)cc3O)ccc21,0%,-14%,2%,23µM*,-6%,25%
CCn1c(C)nc2cc(C(=O)NN=C(C)c3ccc(C#N)cc3)ccc21,2%,12%,/,?,-4%,/
COCCn1c(SCC(=O)c2c(-c3ccccc3)n(C)c3ccccc23)nnc1-c1ccncc1,0%,0%,-2%,?,-4%,-6%
COCCn1c(SCC(=O)/C=C2\N(C)c3ccccc3C2(C)C)nnc1-c1ccncc1,-1%,-27%,0%,23µM*,-4%,3%
CN1/C(=C\C(=O)CSc2nnc(N)s2)C(C)(C)c2ccccc21,0%,-10%,7%,-6%,-1%,1%
COc1ccc(Nc2nnc(SCC(=O)/C=C3/N(C)c4ccccc4C3(C)C)s2)cc1,6%,?,?,23µM*,2%,?
COc1ccccc1OCC(=O)N(Cc1nc(-c2ccccc2)no1)C(C)C,2%,-12%,10%,13µM*,-2%,-11%
Cc1cc(Br)ccc1OCC(=O)N(Cc1nc(-c2ccccc2)no1)C(C)C,1%,-2%,22%,18µM*,-5%,0%
COc1ccccc1OCC(=O)N(Cc1nc(-c2ccc(Cl)cc2)no1)C(C)C,3%,-6%,21%,-21%,-3%,0%
Cc1ccc(OCC(=O)N(Cc2nc(-c3ccccc3)no2)C(C)C)cc1C,4%,2%,/,/,-1%,0%
COc1ccc(NS(=O)(=O)c2ccc(N3CCOCC3)c(NC(=O)c3ccc(F)cc3)c2)cc1,0%,-10%,-2%,9.2µM*,-5%,-7%
CC(C)COc1ccc(C(=O)Nc2cc(S(=O)(=O)N3CCOCC3)ccc2N2CCCC2)cc1,0%,-3%,2%,10%,-1%,/
CC(Oc1ccc(F)cc1)C(=O)Nc1cc(S(=O)(=O)N2CCOCC2)ccc1N1CCCCC1 (stereo not drawn),2%,?,?,21µM*,-5%,/
CCN1CCN(c2ccc(S(=O)(=O)N3CCOCC3)cc2NC(=O)c2ccc(OCC(C)C)cc2)CC1,0%,-23%,/,9.2µM*,-3%,/
CCOC(=O)c1cnc2cc(-c3ccc(OCC)cc3)nn2c1-c1ccccc1,-1%,0%,/,28%,-3%,-12%
COc1ccc(S(=O)(=O)N2CCCCC2)cc1NS(=O)(=O)c1ccc(CNC(C)=O)cc1,2%,-2%,/,3%,-5%,/
COc1ccc(-c2cc3c(c4c2ccn4C)C2CCC3C2)cc1F (stereo not drawn),2%,/,/,/,-4%,/
COC(=O)c1c(-c2cccs2)csc1NC(=O)CN1CCOCC1,3%,-4%,13%,6.5µM*,-1%,0%
O=C(NCCN1CCCCC1)c1ccc(Cn2c(SCc3ccccc3)nc3cccnc32)cc1,6%,-23%,/,22%,-2%,48%

# An excerpt from above in order of length of the SMILES, descending.
SMILES,Nrf2 ARE act,A549 tox,Mito fusion act,Nrf2 inh,GRP78 ERSR act,miR-21 reporter
CCN1CCN(c2ccc(S(=O)(=O)N3CCOCC3)cc2NC(=O)c2ccc(OCC(C)C)cc2)CC1,0%,-23%,/,9.2µM*,-3%,/
CC(C)COc1ccc(C(=O)Nc2cc(S(=O)(=O)N3CCOCC3)ccc2N2CCCC2)cc1,0%,-3%,2%,10%,-1%,/
CCOC(=O)c1cnc2cc(-c3ccc(OCC)cc3)nn2c1-c1ccccc1,-1%,0%,/,28%,-3%,-12%
